The values that follow come from ChEMBL document CHEMBL1143180, “Imidazolyl benzimidazoles and imidazo[4,5-b]pyridines as potent p38alpha MAP kinase inhibitors with excellent in vivo antiinflammatory properties” (Bioorg Med Chem Lett, 2008).

The chains behind the UniProt entries cited, without tags or fusion partners.
UniProt Q16539, whole entry: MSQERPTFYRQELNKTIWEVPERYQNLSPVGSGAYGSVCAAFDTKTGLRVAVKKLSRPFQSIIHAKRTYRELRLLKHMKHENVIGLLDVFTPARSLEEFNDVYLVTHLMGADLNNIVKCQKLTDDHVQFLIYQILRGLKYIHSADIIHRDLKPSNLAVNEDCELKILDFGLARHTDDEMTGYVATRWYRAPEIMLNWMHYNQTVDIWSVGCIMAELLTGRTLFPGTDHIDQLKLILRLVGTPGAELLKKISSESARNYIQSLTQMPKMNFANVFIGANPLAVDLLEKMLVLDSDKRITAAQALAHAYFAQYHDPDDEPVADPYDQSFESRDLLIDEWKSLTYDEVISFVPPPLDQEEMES

The test addresses Mitogen-activated protein kinase 14 (Homo sapiens, UniProt Q16539). As to the kind of experiment: Inhibition of human recombinant p38alpha.

Structures are written as SMILES.

For the molecule `CC(C)(C)Cn1cnc2ccc(-c3[nH]c(C(C)(C)C)nc3-c3ccc(F)cc3F)nc21`, the IC50 was 2.3 nM.

The term IC50 denotes the concentration that inhibits the measured activity by half.
